Earlier results in patent US20070287647A1, “Nail Polish Remover” (priority 2006, published 2007).

Details: in vapor

In the case of CC(C)CON=O [isobutyl nitrite], the inhalation toxicity level is given as “about 600 ppm”.
